# The entries are a selection whose mix differs from that of the whole data set. Some structures have more than one record in an assay (separate samples or runs), and their calls can disagree. Calls of active or inactive are those of the source. No stated cut-off is given here; in the data, active means growth inhibition above about 70%; inactive means the rest.
# Assay: NCI Yeast Anticancer Drug Screen. Data for the mec2-1 strain (AID 157)
# Details: S. cerevisiae mec2-1 strain, at 50.0 µM, stronger effect = higher value
row,SMILES,growth inhibition
1,CCOC(=O)NP(=O)(NC(=O)NOC)NC(=O)OCC,inactive: -6%
2,CC=C(c1ccc(N(CC)CC)cc1)c1ccc(N(CC)CC)cc1,inactive: 2.95%
3,N#CCN/C(N)=N/[N+](=O)[O-],inactive: -1.1%
4,C#CCOP(=O)(CCl)N(CCCl)CCCl (centres undefined),inactive: 13.7%
5,O=P1(N(CCCl)CCCl)NCc2ccccc2O1 (centres undefined),inactive: 27.4%
6,Cc1ccc(C)c(S(=O)(=O)N(CCCl)CCCl)c1,inactive: 6.3%
7,Fc1cccc(NC2=NCC(CI)S2)c1 (centres undefined),inactive: 19.1%
8,CC(C)(C(=O)c1cc([N+](=O)[O-])cc([N+](=O)[O-])c1)c1cc([N+](=O)[O-])cc([N+](=O)[O-])c1,inactive: 25.6%
9,CCCC1OP(N)(=O)OCC1CC (centres undefined),inactive: -8.7%
10,Fc1ccc(NC2=NCC(CI)S2)c(F)c1 (centres undefined),inactive: 5.1%
11,CC(=O)SCC(Cl)Cl,inactive: -0.45%
12,CCOP1OCC(C)O1 (centres undefined),inactive: -0.85%
13,O=C(Nc1cc([N+](=O)[O-])cc([N+](=O)[O-])c1)c1cc([N+](=O)[O-])cc([N+](=O)[O-])c1,inactive: 2.7%
14,CS(=O)(=O)OC1CSCC1OS(C)(=O)=O (centres undefined),inactive: 19.4%
15,N/C(=N\[N+](=O)[O-])NNC=O,inactive: -8.25%
16,NC1=NC(c2ccccc2[N+](=O)[O-])P(=O)(Nc2ncccn2)S1 (centres undefined),inactive: -27.6%
17,O=C(O)c1cccc(N(CCCl)CCCl)c1,inactive: -16.6%
18,O=[As]c1ccc(F)cc1 (centres undefined),active: 99.5%
19,CCOC(=O)NC(c1ccc(OC)c(OC)c1)P(=O)(O)Nc1ncn[nH]1 (centres undefined),inactive: 4.05%

row,SMILES,growth inhibition
1,CCCOP(=S)(Nc1ccc(C)cn1)OCCC,inactive: -2.5%
2,c1ccc2c(c1)N=C1CCCC3CCCCC123 (centres undefined),inactive: 33.5%
3,CCN(CC)P1OCC(C)O1 (centres undefined),inactive: -36%
4,CC[As](=O)(O)O,inactive: 5.9%
5,Cn1c(=O)c([N+](=O)[O-])c(N=[N+]=[N-])c2ccccc21,active: 92.5%
6,C[As](C)SC(C)(C)C(N)C(=O)O (centres undefined),inactive: -0.15%
7,CCCCOP(N)(=O)OCCCC,inactive: -17.6%
8,O=[N+]([O-])c1ccc(N(CCS)c2ccc([N+](=O)[O-])cc2[N+](=O)[O-])c([N+](=O)[O-])c1,inactive: -17.9%
9,CC(=O)OC1CNP(=O)(N(CCCl)CCCl)OC1 (centres undefined),inactive: 27.2%
10,Cc1c([N+](=O)[O-])c(C)c(S(=O)(=O)c2c(C)c([N+](=O)[O-])c(C)c([N+](=O)[O-])c2C)c(C)c1[N+](=O)[O-],inactive: -2.95%
11,CCOP1(=O)N=C(/N=C(\N)N(CC)CC)N(C)C1(C)C (centres undefined),inactive: 4.35%
12,O=C(O)C1C[N+]12C=CC=CC2=O (centres undefined),inactive: -4%
13,FC1(F)SC(Cl)C(Cl)(Cl)C1(F)F (centres undefined),inactive: 10.9%
14,O=P1(N(CCCl)CCCl)NC(CO)CO1 (centres undefined),inactive: 12%
15,O=[As]c1ccc(NC(=O)c2ccccc2)cc1 (centres undefined),inactive: 5.2%
16,CCCCCCCCCCCCCCCC(=O)OCC(COP(=O)(Oc1ccccc1)N(CCCl)CCCl)OC(=O)CCCCCCCCCCCCCCC (centres undefined),inactive: -1.95%
17,BrC1C2(SCCS2)[C@@H]2C[C@@H](c3ccccc32)C12SCCS2 (some centres undefined),inactive: 0.75%
18,ClC1CCCCC1SCCCC1OCCO1 (centres undefined),inactive: -1.45%

# Assay: NCI Yeast Anticancer Drug Screen. Data for the sgs1 mgt1 strain (AID 161);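 further: 0% = growth of cultures given vehicle only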
# Details: S. cerevisiae sgs1 mgt1 strain, at 50.0 µM, stronger effect = higher value
row,SMILES,growth inhibition
1,CCOC(=O)NP(=O)(NC(=O)NOC)NC(=O)OCC,inactive: 0.25%
2,CC=C(c1ccc(N(CC)CC)cc1)c1ccc(N(CC)CC)cc1,inactive: 8.45%
3,N#CCN/C(N)=N/[N+](=O)[O-],inactive: -2.1%
4,C#CCOP(=O)(CCl)N(CCCl)CCCl (centres undefined),inactive: 12.1%
5,O=P1(N(CCCl)CCCl)NCc2ccccc2O1 (centres undefined),inactive: 40%
6,Cc1ccc(C)c(S(=O)(=O)N(CCCl)CCCl)c1,inactive: 13%
7,Fc1cccc(NC2=NCC(CI)S2)c1 (centres undefined),inactive: 47.3%
8,CC(C)(C(=O)c1cc([N+](=O)[O-])cc([N+](=O)[O-])c1)c1cc([N+](=O)[O-])cc([N+](=O)[O-])c1,inactive: 3.25%
9,CCCC1OP(N)(=O)OCC1CC (centres undefined),inactive: -0.3%
10,Fc1ccc(NC2=NCC(CI)S2)c(F)c1 (centres undefined),inactive: -3.85%
11,CC(=O)SCC(Cl)Cl,inactive: 3.45%
12,CCOP1OCC(C)O1 (centres undefined),inactive: 10.3%
13,O=C(Nc1cc([N+](=O)[O-])cc([N+](=O)[O-])c1)c1cc([N+](=O)[O-])cc([N+](=O)[O-])c1,inactive: 7.8%
14,CS(=O)(=O)OC1CSCC1OS(C)(=O)=O (centres undefined),inactive: 18.1%
15,N/C(=N\[N+](=O)[O-])NNC=O,inactive: -14.1%
16,NC1=NC(c2ccccc2[N+](=O)[O-])P(=O)(Nc2ncccn2)S1 (centres undefined),inactive: -24.9%
17,O=C(O)c1cccc(N(CCCl)CCCl)c1,inactive: -10.9%
18,O=[As]c1ccc(F)cc1 (centres undefined),active: 99.6%
19,CCOC(=O)NC(c1ccc(OC)c(OC)c1)P(=O)(O)Nc1ncn[nH]1 (centres undefined),inactive: 10.5%

row,SMILES,growth inhibition
1,CCCOP(=S)(Nc1ccc(C)cn1)OCCC,inactive: 17.2%
2,c1ccc2c(c1)N=C1CCCC3CCCCC123 (centres undefined),inactive: 64.8%
3,CCN(CC)P1OCC(C)O1 (centres undefined),inactive: -16.7%
4,CC[As](=O)(O)O,inactive: 12.2%
5,Cn1c(=O)c([N+](=O)[O-])c(N=[N+]=[N-])c2ccccc21,active: 88.5%
6,C[As](C)SC(C)(C)C(N)C(=O)O (centres undefined),inactive: -12.1%
7,CCCCOP(N)(=O)OCCCC,inactive: -7.6%
8,O=[N+]([O-])c1ccc(N(CCS)c2ccc([N+](=O)[O-])cc2[N+](=O)[O-])c([N+](=O)[O-])c1,inactive: -13.2%
9,CC(=O)OC1CNP(=O)(N(CCCl)CCCl)OC1 (centres undefined),inactive: 53.5%
10,Cc1c([N+](=O)[O-])c(C)c(S(=O)(=O)c2c(C)c([N+](=O)[O-])c(C)c([N+](=O)[O-])c2C)c(C)c1[N+](=O)[O-],inactive: -1.55%
11,CCOP1(=O)N=C(/N=C(\N)N(CC)CC)N(C)C1(C)C (centres undefined),inactive: -39.4%
12,O=C(O)C1C[N+]12C=CC=CC2=O (centres undefined),inactive: 4.45%
13,FC1(F)SC(Cl)C(Cl)(Cl)C1(F)F (centres undefined),inactive: 16.6%
14,O=P1(N(CCCl)CCCl)NC(CO)CO1 (centres undefined),inactive: -1.5%
15,O=[As]c1ccc(NC(=O)c2ccccc2)cc1 (centres undefined),inactive: 8.7%
16,CCCCCCCCCCCCCCCC(=O)OCC(COP(=O)(Oc1ccccc1)N(CCCl)CCCl)OC(=O)CCCCCCCCCCCCCCC (centres undefined),inactive: -6.85%
17,BrC1C2(SCCS2)[C@@H]2C[C@@H](c3ccccc32)C12SCCS2 (some centres undefined),inactive: -8.3%
18,ClC1CCCCC1SCCCC1OCCO1 (centres undefined),inactive: 0.45%

# Source: PubChem BioAssay (NCI)
